## Apparent affinities of Ab-14 variants for a coronavirus HR2 peptide

Antigen: PDVDLGDISGINAS, a 14-residue peptide of the SARS-CoV-2 spike HR2 region.

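Phage display of a naive human antibody library on the peptide gave the parent. In library AAYL50, one, two or three CDR residues were substituted; doubles and triples were drawn at random. Affinity was read by AlphaSeq, a pooled yeast mating assay with surface-displayed partners. Binding brings cells together so that they mate, and sequencing counts the barcode pairs among the diploids. Read counts were normalised to the haploid input and turned into Kd by a linear fit to BCL2-family pairs of known affinity, for each replicate. There are three technical replicates.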

Parent scFv Ab-14: VH joined to VL by the linker GGGGSGGGGSGGGGS. Changes lie in the light chain CDRs alone.
VH: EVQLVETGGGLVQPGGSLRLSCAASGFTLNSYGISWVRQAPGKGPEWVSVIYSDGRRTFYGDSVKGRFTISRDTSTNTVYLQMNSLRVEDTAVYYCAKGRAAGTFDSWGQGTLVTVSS
VL: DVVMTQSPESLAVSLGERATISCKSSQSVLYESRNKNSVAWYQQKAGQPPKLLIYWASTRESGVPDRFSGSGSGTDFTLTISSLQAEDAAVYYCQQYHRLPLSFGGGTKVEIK

Substitutions are numbered in sequence along the VL above, starting at 1 (not Kabat). Values are log10 of the apparent Kd in nM; lower means stronger binding. Averages over replicates are reported, and they cover detected replicates only. "n.d." marks a missing value. The strain was present, yet no cells mated with the target were sequenced in that replicate, which points to weak or no binding. Nonspecific signal, from three strains lacking the peptide, appeared in 18% of pairings of library AAYL50, centred on 4.19 (5% of these signals below 2.99); values are not corrected for it. The control count says in how many pairings with the empty strains this scFv gave a signal, with their mean in brackets. In this assay the parent's reference entry averaged 0.65; its copy inside this library read 1.68.

| changes | log10 Kd (nM) by replicate | mean, log10 nM | empty controls |
|---|---|---|---|
| E32N+K36N+Q96T | 5.04 5.23 n.d. | 5.14 | 2 of 9 (4.54) |
| S26M+V39I+A57K | n.d. n.d. n.d. | n.d. | 0 of 9 |
| E32C+S62F+Q95H | n.d. n.d. n.d. | n.d. | 1 of 9 (2.33) |
| Q27V+K36P+A40L | 5.86 3.72 5.26 | 4.94 | 2 of 9 (3.71) |
| S33P+Y97T+P101W | 1.81 2.12 2.16 | 2.03 | 4 of 9 (4.69) |
| S62C+Q95G+H98G | 2.24 2.50 1.86 | 2.20 | 2 of 9 (5.06) |
| K24N+T59M+S62W | 2.17 1.86 1.98 | 2.00 | 2 of 9 (3.66) |
| L30C+P101F+L102A | 0.91 1.13 0.91 | 0.99 | 2 of 9 (3.63) |
| S25F+S26K+K36I | 0.35 0.48 0.25 | 0.36 | 2 of 9 (3.86) |
| P101R+L102D | 5.05 3.36 3.92 | 4.11 | 6 of 9 (3.69) |
| L30M+T59D+P101N | n.d. n.d. n.d. | n.d. | 0 of 9 |
| Q27V+W56K+A57Y | 2.94 n.d. n.d. | 2.94 | 0 of 9 |
| S25W+S28R+Q95S | n.d. 2.41 n.d. | 2.41 | 1 of 9 (4.85) |
| N35A+V39W+Y97M | n.d. n.d. n.d. | n.d. | 0 of 9 |
| V29Q+N37F+A57H | n.d. n.d. n.d. | n.d. | 1 of 9 (2.52) |
| E32W+S58W+S103P | 3.35 2.68 n.d. | 3.01 | 0 of 9 |
| S28H+S33R+S38M | n.d. n.d. n.d. | n.d. | 1 of 9 (3.30) |
| S25Q+S26W+Y97I | n.d. n.d. n.d. | n.d. | 1 of 9 (3.23) |
| W56D+H98M | -0.55 -0.13 -0.41 | -0.36 | 5 of 9 (4.47) |
| T59R | n.d. n.d. n.d. | n.d. | 0 of 9 |
| S25E+N37A+S58C | n.d. n.d. n.d. | n.d. | 0 of 9 |
| S25G+V39D+A57H | n.d. n.d. n.d. | n.d. | 2 of 9 (3.02) |
| W56C+E61D+Q95Y | n.d. n.d. n.d. | n.d. | 3 of 9 (3.75) |
| E32C+K36A+S103I | n.d. n.d. n.d. | n.d. | 0 of 9 |
| E32D+N37S | 1.62 1.75 1.39 | 1.59 | 0 of 9 |
| R34A+Q96R+L100Q | 3.13 3.75 4.17 | 3.68 | 1 of 9 (4.46) |
| S28M+E61C+Q95Y | 5.02 n.d. 5.84 | 5.43 | 1 of 9 (4.03) |
| V29P+Y31L+W56M | 5.20 n.d. n.d. | 5.20 | 1 of 9 (3.05) |
| R34P+N37R+R99A | n.d. n.d. n.d. | n.d. | 1 of 9 (4.56) |
| R34L+V39L+E61S | 0.42 0.75 0.85 | 0.67 | 0 of 9 |
| S25C+K36C+S58F | 2.35 2.16 2.51 | 2.34 | 1 of 9 (5.13) |
| S25K+S38I+H98W | n.d. n.d. n.d. | n.d. | 2 of 9 (3.95) |
| N37T+S58G+T59Q | 2.49 3.43 3.40 | 3.11 | 5 of 9 (3.57) |

From the list, the first 5 with no signal in any replicate:

| changes | log10 Kd (nM) by replicate | mean, log10 nM | empty controls |
|---|---|---|---|
| S26M+V39I+A57K | n.d. n.d. n.d. | n.d. | 0 of 9 |
| E32C+S62F+Q95H | n.d. n.d. n.d. | n.d. | 1 of 9 (2.33) |
| L30M+T59D+P101N | n.d. n.d. n.d. | n.d. | 0 of 9 |
| N35A+V39W+Y97M | n.d. n.d. n.d. | n.d. | 0 of 9 |
| V29Q+N37F+A57H | n.d. n.d. n.d. | n.d. | 1 of 9 (2.52) |

Data: MIT Lincoln Laboratory AlphaSeq set, Engelhart et al. 2022, doi:10.1038/s41597-022-01779-4, as distributed in FLAb.